Cyclic peptide permeability, from CycPeptMPDB

Values of Townsend et al. 2020, doi:10.26434/chemrxiv.13335941.v1, as listed in CycPeptMPDB.

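The data file gives no further conditions (lipid, pH, time, direction or concentration), and values from different papers need not be comparable. The list need not hold all peptides of the study. Peptides that the database sets to -10, its floor, are left out.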

PAMPA is the parallel artificial membrane permeability assay, which has no cells and reads passive diffusion.
Permeability is given as log10 of P in cm/s; higher (less negative) is more permeable.

- CC(C)C[C@@H]1NC(=O)[C@H](C)NC(=O)[C@H](Cc2ccccc2)NC(=O)[C@@H](CC(C)C)N(C)C(=O)[C@@H]2CCCN2C(=O)CN(Cc2ccccc2)C1=O: PAMPA -6.01 (log10 cm/s)
- CC(C)C[C@@H]1NC(=O)C[C@H](Cc2ccccc2)NC(=O)[C@H](Cc2ccccc2)NC(=O)[C@@H](CC(C)C)NC(=O)[C@H]2CCCN2C(=O)[C@H](CC(C)C)NC1=O: PAMPA -4.85 (log10 cm/s)
- CC(C)C[C@@H]1NC(=O)[C@@H](C)N(C)C(=O)[C@H]2CCCN2C(=O)[C@H](Cc2ccccc2)NC(=O)[C@H](CC(C)C)N(C)C(=O)[C@H]2CCCN2C(=O)[C@H](CC(C)C)NC1=O: PAMPA -5.96 (log10 cm/s)
- CC(C)C[C@@H]1NC(=O)CN(Cc2ccccc2)C(=O)[C@H](C)N(C)C(=O)[C@H]2CCCN2C(=O)[C@H](Cc2ccccc2)NC(=O)[C@H](CC(C)C)N(C)C(=O)[C@H]2CCCN2C1=O: PAMPA -5.39 (log10 cm/s)
- CC(C)C[C@@H]1NC(=O)[C@@H](C)N(C)C(=O)[C@H]2CCCN2C(=O)[C@H](Cc2ccccc2)NC(=O)[C@@H](CC(C)C)N(C)C(=O)[C@@H]2CCCN2C(=O)[C@@H](CC(C)C)NC1=O: PAMPA -5.64 (log10 cm/s)
- CC(C)C[C@@H]1NC(=O)[C@H]2CCCN2C(=O)[C@H](CC(C)C)N(C)C(=O)[C@H](CC(C)C)NC(=O)[C@H](C)NC(=O)[C@H](Cc2ccccc2)NC1=O: PAMPA -5.62 (log10 cm/s)
- CC(C)C[C@@H]1C(=O)N(Cc2ccccc2)CC(=O)N2CCC[C@H]2C(=O)N(C)[C@@H](CC(C)C)C(=O)N[C@@H](Cc2ccccc2)C(=O)N2CCC[C@@H]2C(=O)N[C@@H](Cc2ccccc2)CC(=O)N1C: PAMPA -5.64 (log10 cm/s)
- CCCN1CC(=O)N(C)[C@@H](CC(C)C)C(=O)N(Cc2ccccc2)CC(=O)N2CCC[C@@H]2C(=O)N(C)[C@@H](CC(C)C)C(=O)N[C@@H](Cc2ccccc2)C(=O)N2CCC[C@H]2C1=O: PAMPA -5.21 (log10 cm/s)
- CC(C)C[C@H]1NC(=O)[C@@H](C)N(C)C(=O)[C@H](Cc2ccccc2)NC(=O)CN(Cc2ccccc2)C(=O)[C@H]2CCCN2C(=O)[C@H](CC(C)C)N(C)C1=O: PAMPA -5.25 (log10 cm/s)
- CC(C)C[C@H]1NC(=O)[C@H](C)NC(=O)[C@H]2CCCN2C(=O)[C@H](Cc2ccccc2)NC(=O)[C@@H](CC(C)C)NC(=O)[C@@H]2CCCN2C(=O)[C@@H](CC(C)C)NC1=O: PAMPA -6.46 (log10 cm/s)
- CCCN1CC(=O)N(C)[C@@H](CC(C)C)C(=O)N[C@@H](CC(C)C)C(=O)N2CCC[C@H]2C(=O)N[C@H](CC(C)C)C(=O)N[C@@H](Cc2ccccc2)C1=O: PAMPA -4.93 (log10 cm/s)
- CC(C)C[C@@H]1NC(=O)[C@H]2CCCN2C(=O)CN(Cc2ccccc2)C(=O)[C@H](CC(C)C)NC(=O)[C@@H](C)NC(=O)[C@H]2CCCN2C(=O)[C@H](Cc2ccccc2)NC1=O: PAMPA -6.14 (log10 cm/s)
- CC(C)C[C@@H]1C(=O)N2CCC[C@H]2C(=O)N(C)[C@@H](CC(C)C)C(=O)N[C@@H](Cc2ccccc2)C(=O)N2CCC[C@H]2C(=O)N[C@@H](C)C(=O)N(C)[C@@H](CC(C)C)C(=O)N1C: PAMPA -5.02 (log10 cm/s)
- CC(C)C[C@@H]1C(=O)N[C@@H](Cc2ccccc2)C(=O)N2CCC[C@@H]2C(=O)N[C@H](C)C(=O)N(C)[C@@H](CC(C)C)C(=O)N[C@H](CC(C)C)C(=O)N2CCC[C@@H]2C(=O)N1C: PAMPA -6.85 (log10 cm/s)
- CCCN1CC(=O)N[C@@H](CC(C)C)C(=O)N(C)[C@H](CC(C)C)C(=O)N2CCC[C@@H]2C(=O)N(C)[C@H](CC(C)C)C(=O)N[C@@H](Cc2ccccc2)C(=O)N2CCC[C@H]2C1=O: PAMPA -6.01 (log10 cm/s)
- CC(C)C[C@H]1NC(=O)[C@H](CC(C)C)N(C)C(=O)[C@@H](C)NC(=O)[C@@H]2CCCN2C(=O)[C@H](Cc2ccccc2)NC(=O)CN(Cc2ccccc2)C(=O)[C@H]2CCCN2C1=O: PAMPA -5.77 (log10 cm/s)
- CCCN1CC(=O)N(C)[C@H](CC(C)C)C(=O)N[C@H](CC(C)C)C(=O)N2CCC[C@@H]2C(=O)N(C)[C@H](CC(C)C)C(=O)N[C@@H](Cc2ccccc2)C(=O)N2CCC[C@@H]2C1=O: PAMPA -5.24 (log10 cm/s)
- CCCN1CC(=O)N(C)[C@@H](CC(C)C)C(=O)N(C)[C@@H](CC(C)C)C(=O)N2CCC[C@@H]2C(=O)N[C@H](CC(C)C)C(=O)N[C@@H](Cc2ccccc2)C1=O: PAMPA -5.32 (log10 cm/s)
- CCCN1CC(=O)N(C)[C@@H](CC(C)C)C(=O)N[C@H](CC(C)C)C(=O)N2CCC[C@@H]2C(=O)N(C)[C@@H](CC(C)C)C(=O)N[C@@H](Cc2ccccc2)C(=O)N2CCC[C@@H]2C1=O: PAMPA -5.16 (log10 cm/s)
- CC(C)C[C@@H]1NC(=O)[C@H]2CCCN2C(=O)[C@@H](CC(C)C)NC(=O)[C@@H](CC(C)C)N(C)C(=O)[C@@H](C)N(C)C(=O)[C@H]2CCCN2C(=O)[C@H](Cc2ccccc2)NC1=O: PAMPA -6.63 (log10 cm/s)
- CCCN1CC(=O)N[C@H](CC(C)C)C(=O)N[C@@H](Cc2ccccc2)CC(=O)N2CCC[C@H]2C(=O)N(C)[C@H](CC(C)C)C(=O)N[C@@H](Cc2ccccc2)C(=O)N2CCC[C@@H]2C1=O: PAMPA -5.90 (log10 cm/s)
- CCCN1CC(=O)N(C)[C@H](CC(C)C)C(=O)N(C)[C@@H](CC(C)C)C(=O)N2CCC[C@@H]2C(=O)N(C)[C@H](CC(C)C)C(=O)N[C@@H](Cc2ccccc2)C(=O)N2CCC[C@@H]2C1=O: PAMPA -4.91 (log10 cm/s)

3 of these entries, quoted again:

- CC(C)C[C@H]1NC(=O)[C@H](CC(C)C)N(C)C(=O)[C@@H](C)NC(=O)[C@@H]2CCCN2C(=O)[C@H](Cc2ccccc2)NC(=O)CN(Cc2ccccc2)C(=O)[C@H]2CCCN2C1=O: PAMPA -5.77 (log10 cm/s)
- CCCN1CC(=O)N(C)[C@@H](CC(C)C)C(=O)N[C@@H](CC(C)C)C(=O)N2CCC[C@H]2C(=O)N[C@H](CC(C)C)C(=O)N[C@@H](Cc2ccccc2)C1=O: PAMPA -4.93 (log10 cm/s)
- CCCN1CC(=O)N[C@@H](CC(C)C)C(=O)N(C)[C@H](CC(C)C)C(=O)N2CCC[C@@H]2C(=O)N(C)[C@H](CC(C)C)C(=O)N[C@@H](Cc2ccccc2)C(=O)N2CCC[C@H]2C1=O: PAMPA -6.01 (log10 cm/s)